Our source for the Toxicity values is US20100273696A1, “Composition and method for the prevention and removal of unwanted paint on a surface” (priority 2009, published 2010).

The nature of the data set: Toxicity (hazard class) of possible ingredients. The note with it: hazard symbol or 'none'.

As to `CN1CCN(C)C1=O` [1,3-dimethyl-2-imidazolidinone], the Toxicity entry is given as “none”.
